Tested on: glioma cells
Format: cell-based

Substance: TNF-α
- surface expression of PD-L1 and MHC I markers: not
